The results in this text go back to PubChem BioAssay AID1329 (NMMLSC, 2008).

Sequences of proteins named here, by UniProt entry; tags and fusion partners are left off.
UniProt Q07820, whole entry, looked up: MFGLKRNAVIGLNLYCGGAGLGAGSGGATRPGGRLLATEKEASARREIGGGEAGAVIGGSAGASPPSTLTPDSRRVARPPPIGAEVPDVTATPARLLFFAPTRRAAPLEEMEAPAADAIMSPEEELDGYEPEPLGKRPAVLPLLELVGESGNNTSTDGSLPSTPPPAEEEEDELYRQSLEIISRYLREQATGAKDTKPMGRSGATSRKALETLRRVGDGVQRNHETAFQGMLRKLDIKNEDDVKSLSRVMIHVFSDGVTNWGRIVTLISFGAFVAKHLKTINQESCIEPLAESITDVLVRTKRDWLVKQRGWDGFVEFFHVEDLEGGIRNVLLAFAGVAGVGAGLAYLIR

The target in this assay is Induced myeloid leukemia cell differentiation protein Mcl-1 (Homo sapiens) (UniProt Q07820). Kind of assay: Mcl-1/Bim interaction regulators – biochemical, bead-based flow cytometry, multiplexed, human, dose response (AID 1329). The conditions noted are these: Bim peptide-Mcl-1 binding, MCF.

Only a part is listed here, and it is no random draw. The source made the active and inactive calls. The rule behind the calls is not given here.

With `CCOP1(=S)c2c(C)nn(CCC#N)c2N=C(c2ccc(F)cc2)N1C` (stereo unspecified), the percent span result is “inactive”.
